Measurements taken from patent US9302989B2 (priority 2010, dated 2016).

The chains behind the UniProt entries cited, without tags or fusion partners. Where a name states a change or a piece, a line headed by the entry shows the natural chain unless it says otherwise.
UniProt P43490: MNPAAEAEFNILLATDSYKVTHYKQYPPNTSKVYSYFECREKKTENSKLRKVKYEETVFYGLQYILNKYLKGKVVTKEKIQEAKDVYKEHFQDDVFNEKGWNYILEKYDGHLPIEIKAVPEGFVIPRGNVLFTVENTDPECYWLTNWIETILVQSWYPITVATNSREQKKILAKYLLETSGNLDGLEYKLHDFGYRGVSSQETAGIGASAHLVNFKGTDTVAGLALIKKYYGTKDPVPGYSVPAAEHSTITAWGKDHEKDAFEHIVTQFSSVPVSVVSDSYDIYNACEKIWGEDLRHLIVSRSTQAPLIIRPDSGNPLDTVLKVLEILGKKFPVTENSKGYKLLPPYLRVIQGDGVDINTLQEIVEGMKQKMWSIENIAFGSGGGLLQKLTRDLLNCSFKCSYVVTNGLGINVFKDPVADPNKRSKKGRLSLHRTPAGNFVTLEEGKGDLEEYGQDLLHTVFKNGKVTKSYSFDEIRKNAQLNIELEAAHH

Biological target: NAMPT (Homo sapiens (Human), UniProt P43490)
Details: read-out: TR-FRET Binding IC50 (μM) probe 1

Row | SMILES | IC50 [µM]
1 | CCC(CC)C(=O)N1CC=C(c2ccc(NC(=O)N3Cc4ccccc4C3)cc2)CC1 [Example 460, N-{4-[1-(2-ethylbutanoyl)-1,2,3,6-tetrahydropyridin-4-yl]phenyl}-1,3-dihydro-2H-isoindole-2-carboxamide] | 0.0193
2 | CC(C)C[C@@H](CO)NC(=O)c1ccc(NC(=O)N2Cc3ccccc3C2)cc1 [Example 252, N-(4-{[(2S)-1-hydroxy-4-methylpentan-2-yl]carbamoyl}phenyl)-1,3-dihydro-2H-isoindole-2-carboxamide] | 0.837
3 | O=C(Nc1ccc(C(=O)N2CCN(c3ccccn3)CC2)cc1)N1Cc2ccc(C(F)(F)F)cc2C1 [Example 78, N-(4-{[4-(pyridin-2-yl)piperazin-1-yl]carbonyl}phenyl)-5-(trifluoromethyl)-1,3-dihydro-2H-isoindole-2-carboxamide] | 0.0293
4 | Cc1ccc2c(c1)CN(C(=O)Nc1ccc(C(=O)NCC3CCCC3)cc1)C2 [Example 26, N-{4-[(cyclopentylmethyl)carbamoyl]phenyl}-5-methyl-1,3-dihydro-2H-isoindole-2-carboxamide] | 0.0126
5 | COc1ccccc1CCNC(=O)c1ccc(NC(=O)N2Cc3ccccc3C2)cc1 [Example 122, N-(4-{[2-(2-methoxyphenyl)ethyl]carbamoyl}phenyl)-1,3-dihydro-2H-isoindole-2-carboxamide] | 0.0511
6 | CC(C)(CO)NC(=O)c1ccc(NC(=O)N2Cc3ccccc3C2)cc1 [Example 235, N-{4-[(1-hydroxy-2-methylpropan-2-yl)carbamoyl]phenyl}-1,3-dihydro-2H-isoindole-2-carboxamide] | 0.455
7 | O=C(NCc1ccc(F)cc1)c1ccc(NC(=O)N2Cc3ccccc3C2)cc1 [Example 28, N-{4-[(4-fluorobenzyl)carbamoyl]phenyl}-1,3-dihydro-2H-isoindole-2-carboxamide] | 0.0141
8 | O=C(Nc1ccc2c(c1)OCCO2)c1ccc(NC(=O)N2Cc3ccccc3C2)cc1 [Example 101, N-[4-(2,3-dihydro-1,4-benzodioxin-6-ylcarbamoyl)phenyl]-1,3-dihydro-2H-isoindole-2-carboxamide] | 0.0393
9 | O=C(NCc1ccccn1)c1ccc(NC(=O)N2Cc3ccc(F)cc3C2)cc1 [Example 8, 5-fluoro-N-{4-[(pyridin-2-ylmethyl)carbamoyl]phenyl}-1,3-dihydro-2H-isoindole-2-carboxamide] | 0.00488
10 | O=C(Nc1ccc(N2CCN(C(=O)c3ccncn3)CC2)cc1)N1Cc2ccccc2C1 [Example 534, N-{4-[4-(pyrimidin-4-ylcarbonyl)piperazin-1-yl]phenyl}-1,3-dihydro-2H-isoindole-2-carboxamide] | 0.14
11 | COc1ccc(NC(=O)c2ccc(NC(=O)N3Cc4ccccc4C3)cc2)cc1OC [Example 146, N-{4-[(3,4-dimethoxyphenyl)carbamoyl]phenyl}-1,3-dihydro-2H-isoindole-2-carboxamide] | 0.0694
12 | COc1cccc(NC(=O)c2ccc(NC(=O)N3Cc4ccccc4C3)cc2)c1 [Example 166, N-{4-[(3-methoxyphenyl)carbamoyl]phenyl}-1,3-dihydro-2H-isoindole-2-carboxamide] | 0.0999
13 | O=C(Nc1cnn([C@H]2CCOC2)c1)c1ccc(NC(=O)N2Cc3ccccc3C2)cc1 [Example 136, N-[4-({1-[(3S)-tetrahydrofuran-3-yl]-1H-pyrazol-4-yl}carbamoyl)phenyl]-1,3-dihydro-2H-isoindole-2-carboxamide] | 0.0616
14 | O=C(NCc1ccncn1)c1ccc(NC(=O)N2Cc3ccccc3C2)cc1 [Example 75, N-{4-[(pyrimidin-4-ylmethyl)carbamoyl]phenyl}-1,3-dihydro-2H-isoindole-2-carboxamide] | 0.0274
15 | C=CCCC(=O)Nc1ccc(NC(=O)N2Cc3ccccc3C2)cc1 [Example 307, N-[4-(pent-4-enoylamino)phenyl]-1,3-dihydro-2H-isoindole-2-carboxamide] | 0.0254
16 | O=C(NCCc1ccc2c(c1)OCO2)c1ccc(NC(=O)N2Cc3ccccc3C2)cc1 [Example 121, N-(4-{[2-(1,3-benzodioxol-5-yl)ethyl]carbamoyl}phenyl)-1,3-dihydro-2H-isoindole-2-carboxamide] | 0.0493
17 | COCC(C)NC(=O)c1ccc(NC(=O)N2Cc3ccccc3C2)cc1 (stereo not shown) [Example 243, N-{4-[(1-methoxypropan-2-yl)carbamoyl]phenyl}-1,3-dihydro-2H-isoindole-2-carboxamide] | 0.543
18 | O=C(NCCCN1CCCCC1)c1ccc(NC(=O)N2Cc3ccccc3C2)cc1 [Example 201, N-(4-{[3-(piperidin-1-yl)propyl]carbamoyl}phenyl)-1,3-dihydro-2H-isoindole-2-carboxamide] | 0.189
19 | COc1cccc(NC(=O)c2ccc(NC(=O)N3Cc4ccccc4C3)cc2)c1OC [Example 118, N-{4-[(2,3-dimethoxyphenyl)carbamoyl]phenyl}-1,3-dihydro-2H-isoindole-2-carboxamide] | 0.0481
20 | O=C(Nc1ccc(C(=O)N2CCN(c3cccnn3)CC2)cc1)N1Cc2ccccc2C1 [Example 74, N-(4-{[4-(pyridazin-3-yl)piperazin-1-yl]carbonyl}phenyl)-1,3-dihydro-2H-isoindole-2-carboxamide] | 0.0273
21 | O=C(NCCc1ccc(O)cc1)c1ccc(NC(=O)N2Cc3ccccc3C2)cc1 [Example 134, N-(4-{[2-(4-hydroxyphenyl)ethyl]carbamoyl}phenyl)-1,3-dihydro-2H-isoindole-2-carboxamide] | 0.0613
22 | CCCNC(=O)c1ccc(NC(=O)N2Cc3ccc(C(=O)O)cc3C2)cc1 [Example 273, 2-{[4-(propylcarbamoyl)phenyl]carbamoyl}isoindoline-5-carboxylic acid] | 1
23 | CCCNC(=O)c1ccc(NC(=O)N2Cc3ccc(NC(=O)COC)cc3C2)cc1 [Example 282, 5-[(methoxyacetyl)amino]-N-[4-(propylcarbamoyl)phenyl]-1,3-dihydro-2H-isoindole-2-carboxamide] | 0.14
24 | CC(=O)N1CCN(c2ccc(NC(=O)N3Cc4ccccc4C3)cc2)CC1 [Example 536, N-[4-(4-acetylpiperazin-1-yl)phenyl]-1,3-dihydro-2H-isoindole-2-carboxamide] | 0.187
25 | O=C(NCCc1ccccc1Cl)c1ccc(NC(=O)N2Cc3ccccc3C2)cc1 [Example 105, N-(4-{[2-(2-chlorophenyl)ethyl]carbamoyl}phenyl)-1,3-dihydro-2H-isoindole-2-carboxamide] | 0.0397
26 | O=C(Nc1ccc(C(=O)N2CCN(c3ncccn3)CC2)cc1)N1Cc2ccc(C(F)(F)F)cc2C1 [Example 47, N-(4-{[4-(pyrimidin-2-yl)piperazin-1-yl]carbonyl}phenyl)-5-(trifluoromethyl)-1,3-dihydro-2H-isoindole-2-carboxamide] | 0.0185
27 | O=C(CC1CCCC1)Nc1ccc(NC(=O)N2Cc3ccc(C(=O)O)cc3C2)cc1 [Example 314, 2-({4-[(cyclopentylacetyl)amino]phenyl}carbamoyl)isoindoline-5-carboxylic acid] | 0.021
28 | O=C(CNC(=O)c1ccco1)Nc1ccc(NC(=O)N2Cc3ccccc3C2)cc1 [Example 298, N-(4-{[N-(2-furoyl)glycyl]amino}phenyl)-1,3-dihydro-2H-isoindole-2-carboxamide] | 0.097
